Measured values published in US20110039935A1, “USE OF PHARMACOLOGICALLY ACTIVE CHEMICAL COMPOUNDS” (ENTRESS AB, priority 2007, published 2011).

Legend:
[1] = for blood level of AKG: after enteral administration
[2] = tested on: abdominal aorta sections of elderly mice; details: first stretch series (FIG. 4)
Experimental: This time, experimental subjects that were in need of increased artery elasticity for a more general reason, namely advanced age, were studied.
Female NMRI mice, aged 50 weeks at the start of the trial, were housed at the animal facilities of the Department of Cell & Organism Biology, Lund University, Sweden. The animals were raised under the same conditions with a 12/12 hour light-dark cycle. Mice were fed rodent pellets ad libitum (Altromin no. 1314 Spezialfutterwerke, Lage, Germany) and given free access to drinking water. […] Mice allocated to Group 3 were only fed rodent pellets and were considered to be the Control group (n=6). […]
Aorta sections were immersed into oxygenated and thermostatically controlled chambers (37° C.), having an internal depth and diameter of 5.5 and 3.2 cm, respectively, and holding 44 ml of phosphate buffered saline (0.15 M PBS, pH 7.4) comprising in mM; NaCl 136.91, KCl 2.68, Na2HPO4 8.08 and NaH2PO4 1.66. Force was measured using a FTO3 force displacement transducer (Grass Instrument, West Warwick, R.I.) connected to a home-built bridge amplifier which was interfaced with a 8S PowerLab A/D Converter (ADInstruments, Chalgrove, Oxfordshire, UK). […]
Aorta sections were suspended vertically, and in duplicate. The recorded signal was adjusted to zero for un-tensioned aorta sections with the aid of an offset dial mounted on the pre-amplifier unit. […]

Compound | blood level of AKG [1] | uptake after enteral administration ([1]; enteral administration) | effect on arterial elasticity compared with the control mice [2]
O=C([O-])CCC(=O)C(=O)[O-].[Ca+2] [Ca−AKG, calcium alpha-ketoglutarate] | never or seldom observed | slowed uptake with longer lasting effect | –
O=C([O-])CCC(=O)C(=O)[O-].[Na+].[Na+] [Na−AKG, sodium alpha-ketoglutarate] | exceed 10 μg/ml | – | significant effect
